We go through 1 compound from ChEMBL document CHEMBL1129215, “(Dipropylamino)-tetrahydronaphthofurans: centrally acting serotonin agonists and dopamine agonists-antagonists” (Bioorg Med Chem Lett, 1997).

Amino acid sequences for entries named in this document (tags omitted).
UniProt P35462, whole entry: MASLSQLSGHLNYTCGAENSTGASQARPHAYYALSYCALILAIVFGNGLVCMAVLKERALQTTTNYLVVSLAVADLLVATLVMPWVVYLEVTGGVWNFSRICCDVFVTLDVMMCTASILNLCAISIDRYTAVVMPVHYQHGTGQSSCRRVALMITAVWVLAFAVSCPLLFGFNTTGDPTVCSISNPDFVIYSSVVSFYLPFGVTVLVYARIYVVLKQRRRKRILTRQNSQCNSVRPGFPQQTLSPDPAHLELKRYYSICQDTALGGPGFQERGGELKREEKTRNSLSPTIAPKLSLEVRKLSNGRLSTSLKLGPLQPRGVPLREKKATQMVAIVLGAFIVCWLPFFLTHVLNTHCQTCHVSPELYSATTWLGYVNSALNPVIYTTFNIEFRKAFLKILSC

In the assay the target is D(3) dopamine receptor (Homo sapiens, UniProt P35462). Briefly: biochemical.

Structures are written as SMILES. pKi: −log10 of the molar value.

`CCCN(CCC)C1CCc2c(O)cccc2C1` (stereo unspecified) [5-OH-DPAT] showed a pKi of 8.36.

What is called pKi is −log10 of the Ki, conventionally taken in molar units.
